Assay results from US7572574B2, “Method of measuring neprilysin activity” (Riken, priority 2002, dated 2009).

Target: T1, neprilysin (Mus musculus, UniProt Q61391)
T1 construct: endogenous in cells; host or cells: mouse fetal cerebral cortex and hippocampus primary cultured nerve cells, paraformaldehyde-fixed
T1 sequence (Q61391 1-750): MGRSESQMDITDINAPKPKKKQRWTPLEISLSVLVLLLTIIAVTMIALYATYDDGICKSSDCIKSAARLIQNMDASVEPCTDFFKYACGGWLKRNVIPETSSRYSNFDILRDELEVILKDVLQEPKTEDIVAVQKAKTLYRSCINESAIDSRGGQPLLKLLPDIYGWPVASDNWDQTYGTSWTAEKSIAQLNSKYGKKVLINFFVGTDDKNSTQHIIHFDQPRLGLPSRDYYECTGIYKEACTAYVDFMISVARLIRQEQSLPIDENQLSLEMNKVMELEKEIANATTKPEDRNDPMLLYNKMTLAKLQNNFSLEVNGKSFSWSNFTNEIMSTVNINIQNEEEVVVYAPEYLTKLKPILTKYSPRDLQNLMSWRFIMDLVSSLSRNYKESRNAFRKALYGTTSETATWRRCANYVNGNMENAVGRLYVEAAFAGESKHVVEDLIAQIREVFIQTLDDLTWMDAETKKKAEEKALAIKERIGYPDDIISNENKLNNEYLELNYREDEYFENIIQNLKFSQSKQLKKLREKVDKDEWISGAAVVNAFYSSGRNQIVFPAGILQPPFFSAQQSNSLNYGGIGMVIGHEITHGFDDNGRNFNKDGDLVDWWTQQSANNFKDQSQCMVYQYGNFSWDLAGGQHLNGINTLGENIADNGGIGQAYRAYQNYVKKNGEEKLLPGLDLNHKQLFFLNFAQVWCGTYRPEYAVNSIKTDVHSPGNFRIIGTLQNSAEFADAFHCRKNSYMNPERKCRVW
Assay: Neprilysin activity staining in mouse primary cultured nerve cells (fluorescent substrate, confocal microscopy)
Type: cell-based
Settings: final concentration 10 μM in substrate solution; fixed mouse primary nerve cells

## O=C(O)CNC(=O)C(CS)Cc1ccccc1 (stereo not shown) [thiorphan]
  neprilysin enzyme activity on adding the inhibitor to the substrate solution: almost completely disappeared
